In patent US4137310A, “Method for the control of cattle grubs employing a phenylene bis[imino(thio]carbonyl)diphosphor(thio)-amidic acid ester” (dated 1979):

Tested on: Cuterebra sp. larvae
Experiment: Efficacy for the control of Cuterebra sp. in infested mice, dermal (dip) treatment
Conditions: dermal dip in emulsion, male mice, 48 hours after infestation, examined 4 days posttreatment; concentration that kills 90% of the larvae, log-probit

| Compound | Dermal (mice) Dosage LC90 |
| --- | --- |
| CCOP(=O)(NC(=S)Nc1ccc(NC(=S)NP(=O)(OCC)OCC)c(Cl)c1)OCC | 0.43% |
| CCOP(=O)(NC(=S)Nc1ccc(Cl)cc1NC(=S)NP(=O)(OCC)OCC)OCC | 0.086% |
| CCOP(=O)(NC(=S)Nc1ccccc1NC(=S)NP(=O)(OCC)OCC)OCC | 0.15% |
